Measured values: PubChem BioAssay AID1347430 (National Center for Advancing Translational Sciences (NCATS), 2020)
Only a part is listed here, and it is no random draw. The source made the active and inactive calls. Calls come from the whole dose curve; as a rule, active = well fitted inhibition curve with a large enough effect; inconclusive = small, poorly fitted or top-dose-only effect; inactive = flat fitted curve, though single readings scatter.

Test system: Uracil-DNA glycosylase
Experiment: Primary qHTS assay for inhibitors of Activation Induced Cytidine Deaminase (AID): UDG Counterscreen signal; note: nearly all actives have a fitted effect of over 65% in size
Conditions: FRET deamination/UDG coupled assay, UDG read, 4 h; series mostly up to 115 µM; activity change, negative = inhibition: at the top concentration
From the text: Assay Provider (PI) Patricia Gearhart Ph.D.
National Institute on Aging
National Institute of Health (NIH), Bethesda, MD
Assay Provider (PI) Rahul Kohli Ph.D.
Perelman School of Medicine
University of Pennsylvania, Philadelphia, PA
Activation-Induced Deaminase (AID) is a cytosine deaminase which converts cytosine into uracil within stretches of ssDNA. The presence of uracil in DNA initiates a cascade of mutagenic DNA repair to introduce point mutations and DNA double strand breaks. Specific targeting of AID to the immunoglobulin heavy chain loci (Igh) promotes mutagenesis in the antibody variable region for somatic hypermutation (SHM) or switch regions leading to class switch recombination (CSR). However, AID also plays a role in accumulating unnecessary mutations across the genome. Mis-targeting of AID results in the initiation of tumor development and leads to greater drug resistance among cancer cells when continually expressed. To identify an AID inhibitor, a small molecule library will be screened in collaboration with NCATS core facility at NIH. To confirm biological function, inhibitors will be examined in an in vitro murine B-cell activation assay and subsequent secondary validation screens. Top molecules will be further screened to identify inhibitory efficacy against a wild type primary splenocytes assay. Using these approaches, we hope to identify a small molecule with great efficacy and low toxicity for use as a molecular probe to further characterize AID's intricacies, or even as a therapeutic.
A FRET based analysis of cytosine deamination, was developed to identify potential inhibitors of AID catalytic activity. This screen has two signal output, Read 1 evaluates the AID inhibition response. The second readout (Read 2) evaluates UDG response and is uses as a counterscreen to exclude false positive inhibitors. Inhibition in AID and inactivity in the UDG signal is the desired outcome for this assay.
SEQUENCE No. (e.g., 1, 2, 3, etc.); […] (e.g., Cells, Incubation, Reagent, etc.); VALUE; DESCRIPTION
1a; Reagent; 3 uL; [4/3x] 1 uM AID/2.67 U/mL UDG
1b; Reagent; 3 uL; 2 U/mL UDG
1c; Reagent; 3 uL; 1 uM AID
2a; Compound; 46 nL; Follow-up plates (0.64 uM - 10 mM)
2b; Control; 46 nL; ATA ([…] - 10 mM)
3; Time; 10 min; incubation at room temperature
5; Time; 4 hr; incubation at room temperature
6; Reagent; 4 uL; [2x] 250 mM NaOH
7; Time; 15 sec; centrifuge at 1000 rpm
8; Time; 30 min; incubation at room temperature
9a; Detection; fluorescence (Read 1: AID); EnVision (PerkinElmer) plate reader, 540 excitation and 590 emission filters
9b; Detection; fluorescence (Read 2: UDG); EnVision (PerkinElmer) plate reader, 560 excitation and 665 emission filters
NOTES (numbers refer to sequence above)
1a; Reagents were dispensed in a medium-binding black solid-bottom Greiner plates (789176F) using a BioRptr liquid dispenser. Dispense 3 uL of [4/3x] 1 uM AID (provided by Kohli lab) and [4/3x] 2 U/mL UDG (NEB M0280L) into columns 1, 2, 5 to 48.
1b; Dispense 3 uL of [4/3x] 2 U/mL UDG into column 3.
1c; Dispense 3 uL of [4/3x] 1 uM AID into column 4.
2a; Compound (7-points [uM] (0.64; 3.2; 16; 80; 400; 2,000; 10,000; 20,000) double pin-transferred (Dip Factor = 2) using the Kalypsys (Wako USA) pintool equipped with a 1536 pinhead for a final concentration range of 7.32 nM - 114 uM.
2b; 10 mM Aurintricarboxylic Acid (Sigma A1895) (ATA, 8-point, n = 2, 1:2.5 dilution in column 2) double pin-transferred (Dip Factor = 2) using the Kalypsys (Wako USA) pintool equipped with a 1536 pinhead for a [final] range of 186 nM - 114 uM.
3; Room temperature incubation.
4; Dispense 1 uL of substrate mixture from the Kohli lab [4x] […] DJC20 and [4x] 250 nM DJC23 into columns 1 to 48 .
5; Room temperature incubation.
6; Dispense 4 uL of substrate mixture [2x] 250 mM NaOH into columns 1 to 48.
7; Centrifugation step to remove bubbles.
8; Room temperature incubation
9a; Fluorescence signal (column label AID) was read using the EnVision plate reader. […]
% is set by controls: 0 for no effect and ±100 for the full control effect; potency is the fitted concentration of half-maximal effect.

SMILES	activity change, negative = inhibition	Potency
Cc1ccc(C(C)CCN(CCCl)CCCl)cc1 (stereo unspecified)	inactive: 0.564%	–
O=C(NCC1(N2CCCCC2)CCCCC1)c1c[nH]c2ccccc12	inactive: -9.32%	–
COc1ccccc1C(=O)NCC1(N2CCOCC2)CCCCC1	inactive: 2.26%	–
O=C(NCC1(N2CCOCC2)CCCCC1)c1ccc(Cl)cc1	inactive: -6.5%	–
CC1CN(CCc2ccccc2)CCC1=O (stereo unspecified)	inactive: 4.42%	–
Fc1ccc(CN2CCC(Nc3ccccc3Cl)CC2)cc1	inactive: 5.78%	–
CCCCOc1ccccc1C(=O)NCC1(N2CCOCC2)CCCCC1	inactive: -5.91% [at 57.5 µM]	–
O=C(NCC1(N2CCOCC2)CCCCC1)c1ccccc1Br	inactive: -0.444%	–
COc1ccccc1C(=O)NCC1(N(C)C)CCCCC1	inactive: 6.18%	–
CCc1cc(C(=O)NCC2(N3CCOCC3)CCCCC2)sc1C	inactive: -3.95%	–
CCCOc1cccc(C(=O)NCC2(N3CCOCC3)CCCCC2)c1	inactive: -1.98% [at 57.5 µM]	–
CCOc1ccc(C(=O)NCC2(N3CCOCC3)CCCCC2)cc1	inactive: 16%	–
Brc1ccc(NC2CCN(Cc3cccc(Br)c3)CC2)cc1	inactive: -14.5%	–
O=C(NCC1(N2CCOCC2)CCCCC1)c1ccccc1	inactive: 8.72%	–
O=C(NCC1(N2CCOCC2)CCCCC1)c1ccc([N+](=O)[O-])cc1	inactive: 5.46%	–
CC1C(=O)CCN(CCc2ccccc2)C1C (stereo unspecified)	inactive: 3.32%	–
O=C(NCC1(N2CCOCC2)CCCCC1)c1ccccc1[N+](=O)[O-]	inactive: -6.13%	–
Cc1cc(NC2CCN(Cc3ccccc3)CC2)ccc1Br	inactive: -7.54%	–
COc1cc(C(=O)NCC2(N3CCOCC3)CCCCC2)cc(OC)c1OC	inactive: 8.69%	–
CCCOc1ccc(C(=O)NCC2(N(C)C)CCCCC2)cc1	inactive: -6.49%	–
CC(C)(C)c1ccc(C(=O)NCC2(N3CCOCC3)CCCCC2)cc1	inactive: -18.3%	–
CC1CN(CCc2ccccc2)C(C)CC1=O (stereo unspecified)	inactive: 6.67%	–
Cc1ccccc1C(=O)NCC1(N(C)C)CCCCC1	inactive: -0.638%	–
Clc1ccccc1CN1CCC(Nc2ccc(Br)cc2)CC1	–	active: 89.1 µM
CN(C)C1(CNC(=O)c2cc3c(s2)CCC3)CCCCC1	inactive: -10.6%	–
CN(C)C1(CNC(=O)c2ccc(C(C)(C)C)cc2)CCCCC1	inactive: -1.77%	–
